Data reported in patent US20090172831A1, “Methods for the production of plants resistant to HPPD herbicides” (Syngenta Limited, priority 2000, published 2009).
Values joined by “and” are separate entries in the source; they are usually repeats but may differ in a detail not shown here. Equal entries are not always repeated. Where two headings read alike, the source gives them in different places.

Protein sequences, listed by entry. Tags and fused reporters are not part of them.
UniProt A0A3B6NLC6, entry or part of it: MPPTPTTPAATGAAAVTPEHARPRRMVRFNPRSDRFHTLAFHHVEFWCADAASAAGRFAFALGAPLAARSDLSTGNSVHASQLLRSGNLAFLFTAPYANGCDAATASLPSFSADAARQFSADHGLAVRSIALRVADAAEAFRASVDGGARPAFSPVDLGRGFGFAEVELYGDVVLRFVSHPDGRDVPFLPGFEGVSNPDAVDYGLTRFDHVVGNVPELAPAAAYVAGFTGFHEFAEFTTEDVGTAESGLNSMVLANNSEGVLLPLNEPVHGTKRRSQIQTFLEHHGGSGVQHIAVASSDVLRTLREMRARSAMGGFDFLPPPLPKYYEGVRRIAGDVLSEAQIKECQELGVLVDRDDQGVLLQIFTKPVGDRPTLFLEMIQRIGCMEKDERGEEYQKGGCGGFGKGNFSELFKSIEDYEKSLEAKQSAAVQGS

Columns and labels:
Arabidopsis HPPD = target: T1, Arabidopsis HPPD (Arabidopsis thaliana, UniProt P93836); test: Dissociation of enzyme/inhibitor complexes by exchange with 14C-labelled inhibitor (koff; Kd = koff/kon); type: binding
T1 construct: made in house; host or cells: E. coli BL21 (DE3) codon+ RP
T1 sequence (P93836 1-445): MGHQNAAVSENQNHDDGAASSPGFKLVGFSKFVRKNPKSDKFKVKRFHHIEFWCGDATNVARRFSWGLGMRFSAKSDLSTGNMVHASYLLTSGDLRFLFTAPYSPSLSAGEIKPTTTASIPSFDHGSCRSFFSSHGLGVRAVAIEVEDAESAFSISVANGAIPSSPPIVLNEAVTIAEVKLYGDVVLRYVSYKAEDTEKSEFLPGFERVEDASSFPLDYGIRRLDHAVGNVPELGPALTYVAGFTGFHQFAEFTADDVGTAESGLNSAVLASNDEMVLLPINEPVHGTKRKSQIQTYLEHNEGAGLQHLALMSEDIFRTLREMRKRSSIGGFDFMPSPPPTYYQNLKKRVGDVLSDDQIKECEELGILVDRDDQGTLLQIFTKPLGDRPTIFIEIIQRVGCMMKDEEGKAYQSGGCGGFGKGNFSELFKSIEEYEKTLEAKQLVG
Method: It will be appreciated that many suitable methods known in the art for determining such low koff values are suitable for working the current invention. These include measuring rates of exchange of radio or otherwise labelled inhibitors either with or away from the enzyme inhibitor complex. For example enzyme inhibitor complexes can readily be prepared by incubating HPPD preparations with labelled or unlabelled inhibitor and then, after suitable periods, optionally rapidly separating the thus formed enzyme inhibitor complex from excess inhibitor by any suitable method such as ultrafiltration, binding to filters or exchange down a gel filtration column. Exchange reactions with the, thus prepared enzyme inhibitor complex is then initiated by addition of, as appropriate, excess labelled or unlabelled inhibitor. […] Many methods such as radiometric, fluorimetric, NMR, fluorescence depolarisation, EPR, Mossbauer, UV/VIS spectrophotometry etc. or phonon resonance can, in principle, be used to monitor the enzyme/ligand exchange reactions and, particularly in this case where the enzyme contains an iron atom at the ligand binding site. Optionally, the monitoring method may be continuous (as, for example, with scintillation proximity/bead-based methods) or, discontinuous, based upon collection of data at various timepoints wherein samples are removed and the bound and unbound label components rapidly separated and quantitated.
(§1) Values of koff can suitably be calculated by computer fitting based upon is numerical integration of the exchange data along with information on the active-site concentration of HPPD and upon kon values obtained as described below. […] In any event, koff values are always here calculated from the rate of the major slow exchange reaction.
^14C mesotrione is of specific activity 1.12 GBq/mmol. […] Following this initial binding reaction, exchange reactions are initiated by addition of cold mesotrione to a final concentration of 60 μM and 200 μl aliquots removed at various times to rapid chromatography down a NAP5 gel filtration column equilibrated in 50 mM BTP at pH 7 containing 0.1 M KCl, separation into fractions containing protein-bound or free radiolabel and liquid scintillation counting.

Wheat HPPD [1] = target: T2, Wheat HPPD (Triticum aestivum, UniProt A0A3B6NLC6); test: as above; type: binding
Text: Herbicidal inhibitors of HPPD are found here to have generally low values of koff (in the range less than 0.0003 s^−1, often less than 0.000001 s^−1). It will be appreciated that many suitable methods known in the art for determining such low koff values are suitable for working the current invention. These include measuring rates of exchange of radio or otherwise labelled inhibitors either with or away from the enzyme inhibitor complex. For example enzyme inhibitor complexes can readily be prepared by incubating HPPD preparations with labelled or unlabelled inhibitor and then, after suitable periods, optionally rapidly separating the thus formed enzyme inhibitor complex from excess inhibitor by any suitable method such as ultrafiltration, binding to filters or exchange down a gel filtration column. Exchange reactions with the, thus prepared enzyme inhibitor complex is then initiated by addition of, as appropriate, excess labelled or unlabelled inhibitor. HPPD preparations suitable for use in the methods of the current invention are relatively unpurified, buffer-exchanged, supernatant fractions of spun crude lysates of E. coli strains engineered to express the HPPD enzyme of interest at a level of, typically, about 0.25-10% of the total soluble protein. Many methods such as radiometric, fluorimetric, NMR, fluorescence depolarisation, EPR, Mossbauer, UV/VIS spectrophotometry etc. or phonon resonance can, in principle, be used to monitor the enzyme/ligand exchange reactions and, particularly in this case where the enzyme contains an iron atom at the ligand binding site. Optionally, the monitoring method may be continuous (as, for example, with scintillation proximity/bead-based methods) or, discontinuous, based upon collection of data at various timepoints wherein samples are removed and the bound and unbound label components rapidly separated and quantitated.
as §1, with “reaction. It will be appreciated that within the scope of the current invention many methods of making the desired kinetic comparisons are possible without explicit or rigorous determination of off rates but, based upon the same underlying principle, will achieve the same selection result.” for “reaction.”
The dissociation rates (off rates) of inhibitors selected from Formula 1 and/or 2 and/or 3 and/or 4 from the complexes that they form with test and control HPPD enzymes are suitably measured in a number of ways. […]

Wheat HPPD [2] = target: T2, Wheat HPPD; test: kon from HPLC enzyme assay (progressive inhibition / timed pre-reaction); type: biochemical

Compound	koff (Arabidopsis HPPD; pH 7, 25 C, pH 7.0, 25% glycerol, exchange of 14C mesotrione with cold mesotrione, read-out: koff)	koff (Arabidopsis HPPD; without 25% v/v glycerol, exchange with 14C mesotrione, read-out: koff)	koff (Arabidopsis HPPD; − glycerol, read-out: koff)	ratio koff1/koff3, structure I to structure IV (Wheat HPPD [1])	koff (Wheat HPPD [1]; pH 7, 25 C, pH 7.0, 25% glycerol, exchange of 14C mesotrione with cold mesotrione)	koff (Wheat HPPD [1]; − glycerol)	kon (Wheat HPPD [2]; in the presence of glycerol)	ratio koff4/koff1, structure VI to structure I (Arabidopsis HPPD)	koff (Arabidopsis HPPD; − glycerol)	kon (Wheat HPPD [2]; timed pre-reaction at 0.33 and 1.33 μM inhibitor, 25 C)
CS(=O)(=O)c1ccc(C(=O)C2C(=O)CCCC2=O)c([N+](=O)[O-])c1 [Structure I, 2-(Nitro-4-methanesulphonylbenzoyl)-cyclohexane-1,3-dione]	2e-06 s⁻¹	3.3e-06 s⁻¹	3.3e-06 s⁻¹	22.9 and 16.13	0.00038 s⁻¹	0.001 s⁻¹	70000 M⁻¹ s⁻¹			
Cc1cc(C#N)ccc1C(=O)C1C(=O)C(C)(C)C(=O)C(C)(C)C1=O [Structure VI, 2-[2-methyl-4-cyanobenzoyl]-4,4,6,6-tetramethylcyclohexane-1,3,5-trione]						2.5e-05 s⁻¹		0.6	2e-06 s⁻¹	70000 M⁻¹ s⁻¹
